Assay results taken from ChEMBL document CHEMBL1140644, “New modifications to the area of pyrazole-naphthyl urea based p38 MAP kinase inhibitors that bind to the adenine/ATP site” (Bioorg Med Chem Lett, 2007).

Organism: Homo sapiens
Assay: Protein binding in human plasma by equilibrium dialysis
Details: read-out: PPB

Cc1ccc(-n2nc(C(C)(C)C)cc2NC(=O)Nc2ccc(-c3ccc(CN4CCOCC4)nc3)c3ccccc23)cc1
fraction unbound: < 0.03
